Test results published in PubChem BioAssay AID900 (National Center for Advancing Translational Sciences (NCATS), 2007).
The list shows a part of the results, in another mix than the full data. Activity calls are given as the source filed them. Calls come from the whole dose curve; as a rule, active = well fitted inhibition curve with a large enough effect; inconclusive = small, poorly fitted or top-dose-only effect; inactive = flat fitted curve, though single readings scatter.

target: Caspase-1 (Homo sapiens) (UniProt P29466); assay: qHTS Assay for Allosteric/Competitive Inhibitors of Caspase-1; conditions: Caspase-1 enzyme, Ac-WEHD-AFC fluorogenic rate; at 57.5 µM (top of the series) unless noted
Excerpt: NIH Molecular Libraries Screening Centers Network [MLSCN]
NIH Chemical Genomics Center [NCGC]
PI Name: Dr. James Wells,
Dr. Enrique Perez-Paya, Dr.Janice Williams, Dr. Dennis Wolan, a person
The caspases (Cysteine Aspartyl Protease) comprise a related family of 14 dimeric proteases that are critical mediators of apoptosis (programmed cell death) and inflammation. The caspases represent an important class of drug targets for stroke, ischemia, cancer and inflammatory diseases. […] One goal of this project was to identify compounds that act as allosteric inhibitors via stabilizing the procaspase form of the enzyme. Previous work in Well's laboratory has shown that such allosteric inhibitors can be identified and these act by binding at the dimer interface of enzyme (Hardy, Lam et al., 2004).
The biochemical assay was configured using purified caspase 1 at a high enzyme concentration to promote formation of the homodimers and thus facilitate the identification of allosteric inhibitors. The overall goal was to identify reversible inhibitors with better drug-like properties than the currently available set of aspartyl-containing peptidomimetics that covalently bind the active site. Caspase 1 was assayed using the profluorescent substrate Ac-WEHD-AFC. After initiation of the assay with substrate the plates were rapidly read using an automated robotic system (Kalypsys, Inc.) to maintain consistent timing. A kinetic mode of detection was used where the initial rate was collected (estimated final product formation was ~10%). Compounds were screened as a concentration-titration series that ranged from 57 uM to 0.7 nM. Below is the protocol used for caspase 1.
NCGC Assay Protocol Summary:
Caspase 1 was prepared in buffer (50 mM HEPES pH 7.5, 50 mM KCl, 200 mM NaCl, 10 mM DTT, 0.1% CHAPS) at a concentration of 66.6 nM and 3 uL was dispensed to all wells using black solid Kalypsys 1536-well plates. 20 nL of DMSO containing compounds was added using a pin-tool (Kalypsys Inc.) to columns 5-48. Then 20 nL of DMSO solution from a control plate was added to columns 1-4. Controls were: Column 1, 16 point titration with each concentration in duplicate (1:1 dilutions in DMSO; final starting concentration was 57 uM) of the caspase 1 inhibitor Ac-WEHD-CHO (Alexis Biochemicals); Column 2, a 16 point titration with each concentration in duplicate of the free AFC fluorophore prepared in DMSO (Alexis Biochemicals), final starting was 40 uM; Column 3 neutral (DMSO only) control; Column 4: DMSO alone, to serve as a negative control (no substrate was added). Then 1 uL of 20 uM the substrate Ac-WEHD-AFC (Alexis Biochemicals) prepared in the same buffer was dispensed to all wells except columns 2 and 4 and the plates were immediately transferred (< 1 min) to the Viewlux. The plates were then exposed using 405 nm excitation/520 nm emission filters for 4 sec and read at 20 sec intervals for 3 min. Final enzyme concentration was 50 nM and the final substrate concentration was 5 uM.
Concentration-response curves were fitted to the data calculated from slope of the linear regression of fluorescent intensity versus time (the rate). The concentration-effect curves were then classified based on curve quality (r2), response magnitude and degree of measured activity. […] Inconclusive compounds had appreciable concentration-dependent effects on both the measured rate and the interpolated basal fluorescence intensity at the start of the reaction but where the basal fluorescent intensity was marginal (e.g. < 10-fold). Inconclusive compounds also encompass highly fluorescent compounds (>100-fold increases in fluorescent intensities values relative to controls) where artificial concentration-dependent decreases in the rate occurred at high compound concentrations due to fluorescent interferences.
Keywords: Caspase 1, proteases, profluorescent, MLSMR, MLSCN, NIH Roadmap, qHTS, NCGC

Compound	activity change, negative = inhibition
N#CC1(Nc2ccccc2)CCN(CCc2ccccc2)CC1	inactive: -1.49%
NC1CCCCC1.NP(=O)(O)N(CCCl)CCCl	inactive: 1.09% [at 11.5 µM]
CCOP(=O)(Cl)Cl	inactive: -0.129%
O=C(OC1CN2CCC1CC2)C1c2ccccc2Oc2ccccc21 (stereo unspecified)	inactive: -5.86%
COc1ccc(NC2CCN(CCc3ccccc3)CC2)c(OC)c1	inactive: -2.04%
Fc1ccccc1NC1CCN(Cc2ccccc2)CC1	inactive: -1.62%
CCC(CO)(C(=O)OC1CN2CCC1CC2)c1ccccc1 (stereo unspecified)	inactive: -0.313%
O=C(O)C1(Nc2ccccc2)CCN(Cc2ccccc2)CC1	inactive: 2.02% [at 11.5 µM]
CCOc1ncccc1C(=O)NCC1(N2CCOCC2)CCCCC1	inactive: -0.0827%
N/C(=N\O)c1c(N)no[n+]1[O-]	inactive: -1.14%
ClCCOP(OCCCl)OCCCl	inactive: -4.61%
